Laboratory results reported in US11629201B2, “PSMA-binding agents and uses thereof” (ITM Isotope Technologies Munich SE, priority 2017, dated 2023).

Experiments:
human plasma proteins = experiment: Ultrafiltration assay, binding to human plasma proteins; conditions: different dilutions of human plasma
[1] = test system: PC-3 PIP/flu tumor-bearing mice; experiment: Biodistribution studies in PC-3 PIP/flu tumor-bearing mice

Structure (SMILES)	half-maximum binding (B50), [HSA]-to-[radioligand] ratio (human plasma proteins)	Heart ([1]; 4 h p.i.) [% IA/g]	Kidneys ([1]; 4 h p.i.) [% IA/g]	Liver ([1]; 4 h p.i.) [% IA/g]	PC-3 flu Tumor ([1]; 4 h p.i.) [% IA/g]	Spleen ([1]; 4 h p.i.) [% IA/g]	Kidneys ([1]; 24 h p.i.) [% IA/g]	Liver ([1]; 24 h p.i.) [% IA/g]	Salivary glands ([1]; 24 h p.i.) [% IA/g]	Stomach ([1]; 4 h p.i.) [% IA/g]	Heart ([1]; 6 h p.i.) [% IA/g]	Muscle ([1]; 6 h p.i.) [% IA/g]	Stomach ([1]; 6 h p.i.) [% IA/g]
Cc1ccc(CCCC(=O)NCCCCC(NC(=O)CN2CCN(CC(=O)O)CCN(CC(=O)O)CCN(CC(=O)O)CC2)C(=O)NCC2CCC(C(=O)NC(Cc3ccc4ccccc4c3)C(=O)NCCCCC(NC(=O)NC(CCC(=O)O)C(=O)O)C(=O)O)CC2)cc1 (centres unmarked) [^64Cu-PSMA-ALB-06, metal not drawn]	770	–	–	–	–	–	–	–	–	–	–	–	–
Cc1ccc(CCCC(=O)NCCCCC(NC(=O)CN2CCN(CC(=O)O)CCN(CC(=O)O)CCN(CC(=O)O)CC2)C(=O)NCC2CCC(C(=O)NC(Cc3ccc4ccccc4c3)C(=O)NCCCCC(NC(=O)NC(CCC(=O)O)C(=O)O)C(=O)O)CC2)cc1 (centres unmarked) [^177Lu-PSMA-ALB-06, metal not drawn]	–	5.41 ± 0.82	18.9 ± 0.77	3.45 ± 1.50	3.16 ± 0.39	3.14 ± 0.29	10.5 ± 2.13	0.50 ± 0.11	0.52 ± 0.11	–	–	–	–
Cc1ccc(CCCC(=O)NCCCCC(NC(=O)CN2CCN(CC(=O)O)CCN(CC(=O)O)CCN(CC(=O)O)CC2)C(=O)NCC2CCC(C(=O)NC(Cc3ccc4ccccc4c3)C(=O)NCCCCC(NC(=O)NC(CCC(=O)O)C(=O)O)C(=O)O)CC2)cc1 (centres unmarked) [44Sc-PSMA-ALB-06, metal not drawn]	–	–	–	3.51 ± 0.44	–	–	–	–	–	1.91 ± 0.16	5.17 ± 0.17	1.83 ± 0.07	1.98 ± 0.26
